Laboratory results reported in article PMC4800182 (Frontiers in Microbiology, 2016).

Amino acid sequences for entries named in this document (tags omitted). Residues count along the entry.
UniProt P62575, 54-1035: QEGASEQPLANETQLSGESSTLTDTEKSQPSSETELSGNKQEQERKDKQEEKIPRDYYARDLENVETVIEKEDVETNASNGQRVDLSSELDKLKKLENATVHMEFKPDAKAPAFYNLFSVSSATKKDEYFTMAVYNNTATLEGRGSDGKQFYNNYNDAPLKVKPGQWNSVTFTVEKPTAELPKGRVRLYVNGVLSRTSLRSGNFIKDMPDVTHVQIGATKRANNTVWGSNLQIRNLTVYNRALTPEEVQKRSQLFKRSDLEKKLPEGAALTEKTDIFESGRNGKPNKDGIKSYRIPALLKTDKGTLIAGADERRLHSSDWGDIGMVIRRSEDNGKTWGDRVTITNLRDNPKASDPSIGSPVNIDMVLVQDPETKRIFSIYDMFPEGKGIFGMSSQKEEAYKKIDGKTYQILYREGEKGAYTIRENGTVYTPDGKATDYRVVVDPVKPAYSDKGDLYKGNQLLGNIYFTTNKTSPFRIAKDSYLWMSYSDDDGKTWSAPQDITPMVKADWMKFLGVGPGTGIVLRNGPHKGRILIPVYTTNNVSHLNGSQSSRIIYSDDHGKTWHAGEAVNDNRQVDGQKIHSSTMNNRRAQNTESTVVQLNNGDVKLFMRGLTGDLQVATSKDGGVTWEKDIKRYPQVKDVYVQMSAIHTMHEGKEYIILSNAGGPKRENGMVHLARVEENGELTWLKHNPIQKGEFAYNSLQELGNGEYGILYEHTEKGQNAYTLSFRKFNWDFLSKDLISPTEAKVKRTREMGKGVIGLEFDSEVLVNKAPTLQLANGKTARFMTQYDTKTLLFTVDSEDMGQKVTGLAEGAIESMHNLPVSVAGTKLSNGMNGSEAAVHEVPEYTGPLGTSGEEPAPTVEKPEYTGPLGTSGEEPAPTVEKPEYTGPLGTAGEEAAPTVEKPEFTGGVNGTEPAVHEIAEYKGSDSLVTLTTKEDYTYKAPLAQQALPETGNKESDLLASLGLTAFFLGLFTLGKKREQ

Biological target: T1, rNanA (Streptococcus pneumoniae, UniProt P62575)
T1 construct: made in house; host or cells: E. coli
Assay: FL assay (MUNANA), inhibition of rNanA
Type: biochemical, Streptococcus pneumoniae DSM20566
Conditions: rNanA diluted 1:10,000; pH 6.5; MUNANA substrate; read-out: Inhibitory Concentration of NAIs against rNanA, FL assay
Method: Activity of 10-fold dilutions (1:1,000 to 1:100,000) of rNanA and rNanB was determined with a fluorescence-based NA assay (FL assay) using the substrate 2-(4-methylumbelliferyl)-α-D-N-acetylneuraminic acid sodium salt hydrate (MUNANA, Sigma–Aldrich GmbH) as published ([Richter et al., 2015]). The activity of rNanB was additionally tested at pH 5. Relative FL units (RFU) were read using the microplate reader FLUOstar Omega (BMG Labtech GmbH, Ortenberg, Germany) and converted to 4-MU concentration (Sigma–Aldrich GmbH) according to the 4-MU standard curve (Supplementary Figure 1). Velocity (μM/min) and Km value (μM) for rNanA and rNanB were determined using eight MUNANA concentrations (3.13 to 400 μM) at pH 6.5. After 5 min the reaction was stopped, RFU were measured and converted to 4-MU concentrations according to the 4-MU standard curve. The Enzyme Kinetics Module of SigmaPlot 12.0 (Systat Software, San Jose, CA, USA) was applied to fit the data to the Michaelis–Menten equation using non-linear regression.
The NAI susceptibility of rNanA and rNanB was evaluated with FL assay (rNanA and rNanB diluted 1:10,000 in FL buffer; pH 6.5) and HA assay as published recently ([Richter et al., 2015]) with slight modification of the HA assay. […]

## CC(=O)N[C@H]1[C@H]([C@H](O)[C@H](O)CO)OC(C(=O)O)=C[C@@H]1O [DANA, N-acetyl-2,3-dehydro-2-deoxyneuraminic acid]
  IC50: 17.7 ± 2 µM
